Earlier results in patent US20260382549A1, “USE OF (S)-3-AMINO-4-(DIFLUOROMETHYLENYL)CYCLOPENT-1-ENE-1-CARBOXYLIC ACID INTHE TREATMENT OF DIABETES AND PRE-DIABETES” (published 2026).
pIC50: −log10 of the molar value.

What was measured:
[1] = use in treatment resistant epilepsy and infantile spasms
murine T cell = conditions: Tian et al., Sci Rep 11, 5402 (2021)
[2] = system: LPS-stimulated murine macrophages; conditions: GABA or a GABAA-R agonist
[3] = system: alanine aminotransferase (Ala-AT); conditions: role: inhibitor
[4] = system: aspartate aminotransferase (Asp-AT); conditions: role: inhibitor
[5] = preclinical, compared with vigabatrin
[6] = significantly lower drug dosages

C=CC(N)CCC(=O)O (centres unmarked)
serious side effects [1]: potential retinal toxicity and subsequent visual field defects

NCCCC(=O)O
TGFß and Treg responses (murine T cell): promoting
murine T cell production of IL-21, IFNγ2-4, TNFα3, and IL-123 (murine T cell): limit
secretion of IL-6, IL-1B, IL-12 and/or TNFα [2]: reduced

N[C@H]1C=C(C(=O)O)CC1=C(F)F
pIC50 ([3]; very weak reversible inhibitor): < 2.40
pIC50 ([4]; very weak reversible inhibitor): < 2.40

N[C@H]1C[C@@H](C(=O)O)CC1=C(F)F
inactivation or inhibition of off-target enzyme Ala-AT ([3]; unlike vigabatrin): not to inactivate or inhibit
inactivation or inhibition of off-target enzyme Asp-AT ([4]; unlike vigabatrin): not to inactivate or inhibit
pharmacokinetics at significantly lower drug dosages [5]: comparable pharmacokinetics
tolerability [5, 6]: improved tolerability
toxicity profile [5, 6]: more favorable toxicity profile
